Reference: ChEMBL document CHEMBL1127434, “Discovery of nanomolar ligands for 7-transmembrane G-protein-coupled receptors from a diverse N-(substituted)glycine peptoid library” (J Med Chem, 1994)

Sequences of proteins named here, by UniProt entry; tags and fusion partners are left off. A change or cut given only in a name is not applied to a line headed by its entry.
UniProt P15823: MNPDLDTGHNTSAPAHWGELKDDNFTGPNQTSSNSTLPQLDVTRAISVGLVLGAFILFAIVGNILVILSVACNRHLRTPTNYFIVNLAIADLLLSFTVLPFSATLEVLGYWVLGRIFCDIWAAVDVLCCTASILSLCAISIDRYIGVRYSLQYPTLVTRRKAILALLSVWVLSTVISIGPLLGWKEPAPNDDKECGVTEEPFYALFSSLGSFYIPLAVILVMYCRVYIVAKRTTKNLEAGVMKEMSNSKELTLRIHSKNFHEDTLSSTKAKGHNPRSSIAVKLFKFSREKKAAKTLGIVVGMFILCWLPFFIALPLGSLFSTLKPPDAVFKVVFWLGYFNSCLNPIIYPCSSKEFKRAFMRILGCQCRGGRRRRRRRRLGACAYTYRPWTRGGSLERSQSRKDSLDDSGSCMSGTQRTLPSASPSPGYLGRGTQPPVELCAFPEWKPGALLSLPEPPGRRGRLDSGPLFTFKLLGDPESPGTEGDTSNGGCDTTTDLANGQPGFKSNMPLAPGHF
UniProt P23944: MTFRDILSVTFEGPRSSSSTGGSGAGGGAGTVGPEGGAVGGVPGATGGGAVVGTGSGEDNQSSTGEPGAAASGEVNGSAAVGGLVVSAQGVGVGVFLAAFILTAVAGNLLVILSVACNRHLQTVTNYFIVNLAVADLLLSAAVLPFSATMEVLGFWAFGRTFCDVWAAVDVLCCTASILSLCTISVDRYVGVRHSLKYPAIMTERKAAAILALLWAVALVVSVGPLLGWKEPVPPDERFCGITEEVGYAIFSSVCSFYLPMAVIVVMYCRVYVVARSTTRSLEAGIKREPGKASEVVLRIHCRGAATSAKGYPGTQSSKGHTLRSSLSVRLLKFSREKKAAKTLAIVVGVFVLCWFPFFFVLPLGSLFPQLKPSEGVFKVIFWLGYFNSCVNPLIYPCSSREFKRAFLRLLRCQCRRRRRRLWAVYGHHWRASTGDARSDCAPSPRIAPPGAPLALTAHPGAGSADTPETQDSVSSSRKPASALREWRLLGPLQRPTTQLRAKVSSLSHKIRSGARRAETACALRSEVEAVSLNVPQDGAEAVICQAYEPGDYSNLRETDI
UniProt P43140: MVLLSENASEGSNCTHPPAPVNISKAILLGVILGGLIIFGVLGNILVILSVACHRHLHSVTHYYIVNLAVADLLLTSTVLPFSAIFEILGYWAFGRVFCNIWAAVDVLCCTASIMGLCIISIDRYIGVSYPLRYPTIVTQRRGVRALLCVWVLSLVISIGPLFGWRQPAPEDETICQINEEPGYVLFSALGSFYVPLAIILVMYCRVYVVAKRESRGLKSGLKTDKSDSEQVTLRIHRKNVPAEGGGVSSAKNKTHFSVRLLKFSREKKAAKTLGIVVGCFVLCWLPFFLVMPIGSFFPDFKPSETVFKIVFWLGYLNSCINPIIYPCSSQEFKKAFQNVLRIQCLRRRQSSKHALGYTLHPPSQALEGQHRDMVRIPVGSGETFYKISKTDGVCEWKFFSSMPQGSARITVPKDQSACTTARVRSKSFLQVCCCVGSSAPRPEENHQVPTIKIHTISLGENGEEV

Molecular target: Adrenergic receptor alpha-1 (Rattus norvegicus, UniProt P15823+P23944+P43140)

CNC[C@H](O)c1ccc(O)c(O)c1 [EPINEPHRINE]
Ki: 14 µM
